Our source for the IC50 values is PMC8915830 (Proceedings of the National Academy of Sciences of the …, 2022).

The chains behind the UniProt entries cited, without tags or fusion partners.
UniProt Q92847, whole entry: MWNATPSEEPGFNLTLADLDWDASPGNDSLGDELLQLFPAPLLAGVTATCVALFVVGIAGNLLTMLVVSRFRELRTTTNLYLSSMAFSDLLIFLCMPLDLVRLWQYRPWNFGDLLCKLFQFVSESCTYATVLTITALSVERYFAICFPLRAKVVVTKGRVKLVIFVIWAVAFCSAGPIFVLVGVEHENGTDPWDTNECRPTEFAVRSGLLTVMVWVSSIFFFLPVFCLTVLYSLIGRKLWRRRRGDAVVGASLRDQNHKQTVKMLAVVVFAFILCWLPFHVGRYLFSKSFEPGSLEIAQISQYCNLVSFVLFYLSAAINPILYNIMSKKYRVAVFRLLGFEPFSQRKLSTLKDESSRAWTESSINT

The target in the experiment is hGHSR1a^WT (growth hormone secretagogue receptor-1a), expressed in HEK293/T cells (human) (UniProt Q92847). Nature of the experiment: radioligand binding.

Turning to “full length, human acyl-ghrelin peptide (1-28, amino acids)”, the half-maximal inhibitory concentration (IC50) was 2.5 nM.
